Read-outs that look alike come from different tables or passages of the source.
Tested on: latent HIV-1 in CD8+-depleted MNC
Details: for Copies HIV RNA/mL: 7 days

## O=C(CCCCCCC(=O)Nc1ccccc1)NO [SAHA, vorinostat, reference compound]
4 donors on suppressive cART tested
  CD8+-depleted blood mononuclear cell preparations (donors) with increased HIV-1 expression: 1 of the 4
Donor 1, 0.5 µM SAHA, control 96
  Copies HIV RNA/mL: 0 copies/mL
Donor 1, 2 µM SAHA, control 96
  Copies HIV RNA/mL: 51 copies/mL
Donor 2, 0.5 µM SAHA, control 0
  Copies HIV RNA/mL: 0 copies/mL
Donor 2, 2 µM SAHA, control 0
  Copies HIV RNA/mL: 24 copies/mL
Donor 4, 0.5 µM SAHA, control 20
  Copies HIV RNA/mL: 0 copies/mL
Donor 4, 2 µM SAHA, control 20
  Copies HIV RNA/mL: 23 copies/mL
